ChEMBL document CHEMBL6071206, “Development of BODIPY FL SNS 032 as a Versatile Probe for Constitutive Androstane Receptor and Multiple Kinases” (ACS Med Chem Lett, 2024)

Sequences of proteins named here, by UniProt entry; tags and fusion partners are left off. A change or cut given only in a name is not applied to a line headed by its entry.
UniProt P49840: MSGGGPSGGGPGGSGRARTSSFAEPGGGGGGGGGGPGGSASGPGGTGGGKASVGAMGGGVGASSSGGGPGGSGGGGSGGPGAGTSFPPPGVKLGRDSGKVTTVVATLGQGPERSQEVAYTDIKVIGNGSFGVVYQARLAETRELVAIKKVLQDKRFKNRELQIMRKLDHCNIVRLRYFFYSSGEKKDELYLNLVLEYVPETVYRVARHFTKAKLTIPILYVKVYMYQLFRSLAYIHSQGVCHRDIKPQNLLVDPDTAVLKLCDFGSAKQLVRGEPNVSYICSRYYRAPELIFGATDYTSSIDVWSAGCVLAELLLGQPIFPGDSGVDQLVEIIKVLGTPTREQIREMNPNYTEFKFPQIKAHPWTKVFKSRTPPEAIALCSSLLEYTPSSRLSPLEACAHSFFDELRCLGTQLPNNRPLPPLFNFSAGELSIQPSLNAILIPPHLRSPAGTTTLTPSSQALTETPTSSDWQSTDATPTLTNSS
UniProt Q96RR4, whole entry, looked up: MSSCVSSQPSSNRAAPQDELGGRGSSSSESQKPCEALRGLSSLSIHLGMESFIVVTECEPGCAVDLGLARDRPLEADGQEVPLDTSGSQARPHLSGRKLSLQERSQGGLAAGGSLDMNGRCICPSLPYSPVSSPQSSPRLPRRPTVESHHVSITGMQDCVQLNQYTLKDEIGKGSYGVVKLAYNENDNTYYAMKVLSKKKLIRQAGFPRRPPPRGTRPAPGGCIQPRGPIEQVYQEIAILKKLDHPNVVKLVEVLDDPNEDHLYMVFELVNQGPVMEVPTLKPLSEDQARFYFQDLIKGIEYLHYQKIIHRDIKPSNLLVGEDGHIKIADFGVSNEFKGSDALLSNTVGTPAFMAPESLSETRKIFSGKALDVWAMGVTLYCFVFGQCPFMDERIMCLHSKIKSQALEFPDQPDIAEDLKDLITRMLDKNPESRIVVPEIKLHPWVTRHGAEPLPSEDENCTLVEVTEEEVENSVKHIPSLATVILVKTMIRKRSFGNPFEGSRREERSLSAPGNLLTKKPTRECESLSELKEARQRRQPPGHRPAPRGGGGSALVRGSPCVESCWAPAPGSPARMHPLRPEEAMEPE

How the values were obtained:
[1] = biological target: T1, Glycogen synthase kinase-3 alpha (Homo sapiens, UniProt P49840); test: Binding affinity to GST-tagged human GSK3A assessed as fold change in FRET signal at 3.9 nM incubated for 90 mins by TR-FRET assay relative to control
[2] = biological target: T1, Glycogen synthase kinase-3 alpha; test: Binding affinity to GST-tagged human GSK3A assessed as fold change in FRET signal at 4.5 nM incubated for 90 mins by TR-FRET assay relative to control
[3] = biological target: T2, Mitogen-activated protein kinase 15 (Homo sapiens) (UniProt Q8TD08); test: Binding affinity to Flag/His-tagged human MAPK15 assessed as fold change in FRET signal at 125 nM incubated for 90 mins by TR-FRET assay relative to control
T2 sequence (whole entry): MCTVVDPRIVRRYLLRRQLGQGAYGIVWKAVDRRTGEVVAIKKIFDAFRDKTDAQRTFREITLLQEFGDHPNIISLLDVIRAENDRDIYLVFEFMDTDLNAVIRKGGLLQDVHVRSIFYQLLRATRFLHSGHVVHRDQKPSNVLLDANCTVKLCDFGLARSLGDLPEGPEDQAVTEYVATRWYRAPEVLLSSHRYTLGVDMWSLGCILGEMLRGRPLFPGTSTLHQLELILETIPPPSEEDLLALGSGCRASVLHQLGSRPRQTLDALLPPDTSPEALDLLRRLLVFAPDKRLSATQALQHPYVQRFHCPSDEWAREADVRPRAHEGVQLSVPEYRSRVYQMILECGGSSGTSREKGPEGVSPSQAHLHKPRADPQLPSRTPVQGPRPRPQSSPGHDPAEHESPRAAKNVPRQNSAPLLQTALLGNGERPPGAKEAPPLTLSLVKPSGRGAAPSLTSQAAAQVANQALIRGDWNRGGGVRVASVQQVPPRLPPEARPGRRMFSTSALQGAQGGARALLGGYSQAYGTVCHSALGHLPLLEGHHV

[4] = biological target: T2, Mitogen-activated protein kinase 15 (Homo sapiens); test: Binding affinity to Flag/His-tagged human MAPK15 assessed as fold change in FRET signal at 339.9 nM incubated for 90 mins by TR-FRET assay relative to control
[5] = biological target: T3, Peripheral plasma membrane protein CASK (Homo sapiens) (UniProt O14936); test: Binding affinity to GST-tagged human CASK assessed as fold change in FRET signal at 125 nM incubated for 90 mins by TR-FRET assay relative to control
T3 sequence (whole entry): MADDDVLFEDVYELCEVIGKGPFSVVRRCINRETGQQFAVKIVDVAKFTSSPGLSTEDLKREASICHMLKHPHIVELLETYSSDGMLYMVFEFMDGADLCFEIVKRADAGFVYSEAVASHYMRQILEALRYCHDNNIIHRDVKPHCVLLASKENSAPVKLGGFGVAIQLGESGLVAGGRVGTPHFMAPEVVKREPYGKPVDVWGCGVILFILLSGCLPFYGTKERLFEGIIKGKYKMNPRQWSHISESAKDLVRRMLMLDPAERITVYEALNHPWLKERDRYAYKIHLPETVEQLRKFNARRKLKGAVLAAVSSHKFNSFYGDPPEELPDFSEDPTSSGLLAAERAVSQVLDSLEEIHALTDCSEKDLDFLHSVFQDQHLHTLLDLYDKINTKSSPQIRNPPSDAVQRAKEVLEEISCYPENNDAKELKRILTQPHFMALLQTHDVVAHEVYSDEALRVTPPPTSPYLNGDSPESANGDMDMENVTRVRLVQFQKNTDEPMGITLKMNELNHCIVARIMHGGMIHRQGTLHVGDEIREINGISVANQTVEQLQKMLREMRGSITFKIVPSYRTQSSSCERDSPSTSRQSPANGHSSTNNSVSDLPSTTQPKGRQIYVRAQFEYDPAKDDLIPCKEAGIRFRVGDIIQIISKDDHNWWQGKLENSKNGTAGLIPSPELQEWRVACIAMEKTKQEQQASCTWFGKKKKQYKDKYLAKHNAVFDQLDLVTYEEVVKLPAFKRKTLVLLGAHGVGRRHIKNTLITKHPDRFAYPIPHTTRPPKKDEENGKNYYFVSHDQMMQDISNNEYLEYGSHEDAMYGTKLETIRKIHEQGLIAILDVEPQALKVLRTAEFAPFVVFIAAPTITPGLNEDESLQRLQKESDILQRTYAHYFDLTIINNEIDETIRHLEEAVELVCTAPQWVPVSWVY

[6] = biological target: T3, Peripheral plasma membrane protein CASK (Homo sapiens); test: Binding affinity to GST-tagged human CASK assessed as fold change in FRET signal at 551.5 nM incubated for 90 mins by TR-FRET assay relative to control
[7] = biological target: T4, Calcium/calmodulin-dependent protein kinase kinase 2 (Homo sapiens, UniProt Q96RR4); test: Binding affinity to GST-tagged human CAMKK2 assessed as fold change in FRET signal at 125 nM incubated for 90 mins by TR-FRET assay relative to control
[8] = biological target: T4, Calcium/calmodulin-dependent protein kinase kinase 2; test: Binding affinity to GST-tagged human CAMKK2 assessed as fold change in FRET signal at 533.2 nM incubated for 90 mins by TR-FRET assay relative to control

`Cc1cc(C)n2c1C=C1C=CC(CCC(=O)N3CCC(C(=O)Nc4ncc(SCc5ncc(C(C)(C)C)o5)s4)CC3)=[N+]1[B-]2(F)F` showed a fold change (FC) [1] of 26.9, a fold change (FC) [2] of 26.9 and a fold change (FC) [3] of 4.7. The fold change (FC) [4] was 3.8, the fold change (FC) [5] was 3.7 and the fold change (FC) [6] was 2.8. For the same compound, the fold change (FC) [7] was 3 and the fold change (FC) [8] was 2.5.
